We go through one molecule from ChEMBL document CHEMBL2203189, “Synthesis and pharmacology of 1-alkyl-3-(1-naphthoyl)indoles: steric and electronic effects of 4- and 8-halogenated naphthoyl substituents” (Bioorg Med Chem, 2012).

What all share (format): functional
The test system of experiment [1] is Mus musculus. The experiment can be described thus: Antinociceptive activity in iv dosed Harlan ICR mouse assessed as latency to heat-induced tail flicking at 20 mins. The method in brief: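 Male ICR mice, 18–25 g, n = 6 per dose. Multiple doses iv by tail vein in emulphor–ethanol–saline 1:1:18. Tail-flick latency at 20 min, 10 s cutoff, expressed as %MPE.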

The test system of experiment [2] is Mus musculus. The experiment can be described thus: Hypothermic activity in iv dosed Harlan ICR mouse assessed as change in rectal temperature at 30 mins. Particulars: 0.5 h.
The test system of experiment [3] is Mus musculus. The experiment is described as follows: Induction of catalepsy in iv dosed Harlan ICR mouse at 40 mins measured for 5 mins by ring immobility test.

SMILES strings stand for the structures.

As a reminder, the ED50 is the dose at which the effect has come halfway, by size or by number of responders. As for `CCCCCc1cc(O)c2c(c1)OC(C)(C)[C@@H]1CCC(C)=C[C@@H]21` [DRONABINOL], the ED50 with Mus musculus [1] came out at 4.5 µmol/kg; with Mus musculus [2], 4.5 µmol/kg; in the experiment on Mus musculus [3], 4.8 µmol/kg.
